# Columns and labels:
# APP [1] = experiment: APP level in rat brain cortex and hippocampus, western blotting; assay type: in vivo, wistar rat; conditions: omega-3 fatty acid (EPA 90 mg/Kg + DHA 60 mg/Kg) or α-tocopherol 100 mg/Kg, oral, with 10X-MM to P-60
# Protocol: (§1) All animal-handling procedures were carried out in accordance with the current regulations of the Indian Institute of Toxicology Research Animal Ethics Committee, and with its prior approval for using the animals. The pregnant female wistar rats were housed in a 12-h […] cycle environment with ad libitum diet and water. The rats were divided into six groups (n=30 per group), gavage-treated with the metal mixture (Table 1). The metal mixture treatment was at two concentrations (1× and 10×; Groups 1-3, Table 1) for dose-dependent study. To identify the synergistic nature, the animals were treated in mixture as well as individually with the metals (Group 1-6 of Table 1). The heavy metals were As, Cd and Pb, fed in the form of NaAsO2, CdCl2 and Pb(C2H3O2)2, respectively, in Milli Q water. The NaAsO2, and CdCl2 readily dissolved in water, while Pb(C2H3O2)2 was dissolved by adding 0.043% acetic acid in water. […]
# (§2) Tissues of the cerebral cortex and hippocampus from five to seven postnatal wistar rats were harvested, snap-frozen in liquid nitrogen, and stored at −80° C. until further investigation. […] The samples were detected by chemiluminescence with super signal west femto max substrate. Relative expression of each protein was determined by densitometric quantification of blots using VersaDoc Gel Imaging System (BioRad, Hercules, CF). […]
# Aβ-42 = Aβ-42 level in rat brain cortex and hippocampus, western blotting; assay type: in vivo, wistar rat; conditions: omega-3 fatty acid (EPA 90 mg/Kg + DHA 60 mg/Kg) or α-tocopherol 100 mg/Kg, oral, with 10X-MM to P-60
# Protocol: as §1, §2
# Aβ = Aβ level in cultured rat neurons and astrocytes; assay type: cell-based, wistar rat; conditions: metal mixture-induced, memantine 5 μM, donepezil 10 μM, docosahexaenoic acid 10 μM, α-tocopherol 10 μM
# Protocol: (§3) The pregnant wistar rats were sacrificed by cervical dislocation and the embryos were removed on the 16th day of gestation. The embryonic brain tissues were mechanically dissociated into individual cells in dissection media containing Glucose (1M), sucrose (1 M), HEPES Buffer (1M) and Hank's salt (1×). The resulting cells were centrifuged (1,500 rpm, 5 min), resuspended in NEUROBASAL medium containing B-27 supplement (Invitrogen, Carlsbad, Calif.), L-glutamine (0.5 mM), penicillin (100 U/ml) and streptomycin (100 μg/ml) and plated into 60 mm dishes. The culture media was changed every 2 days. Greater than 90% of the cells in these cultures were neurons as assessed by cell morphology and immunostaining with rabbit monoclonal antibodies against MAP-2 (1:100).
# (§4) The astrocytes from rat brain were isolated and cultured. […] The cells reached confluence at 7 days after subculture, and at this point, more than 95-97% of cells were GFAP-positive astrocytes, as determined by the immunofluorescence staining. […]
# (§5) The astrocytes and neurons were treated, washed with PBS and suspended in 100 μl of CelLytic™ MT Cell Lysis Reagent protease inhibitor cocktail (a mixture of 4-(2-aminoethyl)benzenesulfonyl fluoride, pepstatinA, E-64, bestatin, leupeptin, and aprotinin)] and kept on ice for 20 min. […] The samples were detected by chemiluminescence with super signal west femto max substrate. […]
# APP [2] = experiment: APP level in cultured rat neurons and astrocytes; assay type: cell-based, wistar rat; conditions: metal mixture-induced, memantine 5 μM, donepezil 10 μM, docosahexaenoic acid 10 μM, α-tocopherol 10 μM
# Protocol: as §3, §4, §5
structure (smiles),measurement,setting,value
Cc1c(C)c2c(c(C)c1O)CC[C@@](C)(CCC[C@H](C)CCC[C@H](C)CCCC(C)C)O2 [α-tocopherol],effect on APP in the non-transgenic wistar rat model of AD,APP [1],suppress
same,effect on Aβ1-42 in the non-transgenic wistar rat model of AD,Aβ-42,suppress
same,Fold reduction in Aβ,Aβ,1.9 ± 0.0192 fold
same,Fold reduction in APP,APP [2],1.3 ± 0.0493 fold
